These are literature values, as cited in patent US20140100282A1, “INTRANASAL ADMINISTRATION OF PHARMACEUTICAL AGENTS FOR TREATMENT OF NEUROLOGICAL DISEASES” (priority 2012, published 2014).

For this data set the following is noted: octanol/water partitioning.

What is called LogD is the decadic logarithm of the distribution of all forms, ionised or not, between an organic phase and buffer at a given pH. With metformin laurate, the log distribution coefficient (LogD) was 0.44.
